Usually IC50 stands for the concentration needed to halve the response being measured. Low values mean higher potency, high ones lower potency.

By UniProt entry, the sequences of proteins in these tests, tags left out. Where a name states a change or a piece, a line headed by the entry shows the natural chain unless it says otherwise.
UniProt P31749, whole entry E17K: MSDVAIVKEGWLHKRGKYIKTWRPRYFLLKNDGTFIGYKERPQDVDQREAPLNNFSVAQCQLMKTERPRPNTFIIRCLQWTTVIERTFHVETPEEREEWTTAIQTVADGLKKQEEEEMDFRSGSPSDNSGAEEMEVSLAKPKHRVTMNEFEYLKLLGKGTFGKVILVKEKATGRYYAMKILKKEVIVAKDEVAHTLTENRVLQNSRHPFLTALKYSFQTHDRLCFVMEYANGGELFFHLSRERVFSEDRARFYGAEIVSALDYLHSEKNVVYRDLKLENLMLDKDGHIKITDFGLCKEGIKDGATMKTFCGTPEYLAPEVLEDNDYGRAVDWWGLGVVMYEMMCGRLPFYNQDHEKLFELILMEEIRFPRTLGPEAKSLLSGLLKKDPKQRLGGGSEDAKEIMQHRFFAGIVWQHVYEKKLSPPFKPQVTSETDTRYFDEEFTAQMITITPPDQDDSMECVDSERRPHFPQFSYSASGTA
UniProt P31751: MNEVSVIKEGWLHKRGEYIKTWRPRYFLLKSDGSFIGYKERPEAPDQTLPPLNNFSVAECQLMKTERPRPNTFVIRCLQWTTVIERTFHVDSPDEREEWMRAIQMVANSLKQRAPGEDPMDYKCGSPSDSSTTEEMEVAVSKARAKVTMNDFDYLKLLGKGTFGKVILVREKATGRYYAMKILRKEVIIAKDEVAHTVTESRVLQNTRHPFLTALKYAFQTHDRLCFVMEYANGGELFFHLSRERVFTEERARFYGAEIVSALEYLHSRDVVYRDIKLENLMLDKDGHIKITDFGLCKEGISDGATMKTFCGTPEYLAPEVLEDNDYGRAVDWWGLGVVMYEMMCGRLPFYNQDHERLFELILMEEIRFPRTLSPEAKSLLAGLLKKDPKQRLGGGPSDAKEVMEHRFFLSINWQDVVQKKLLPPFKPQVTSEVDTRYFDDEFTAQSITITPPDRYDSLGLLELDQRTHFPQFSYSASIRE

Assay [1] addresses AKT1 E17K (Homo sapiens (Human), UniProt P31749, E17K). As to the kind of experiment: Live cell target engagement (NanoBRET) in HEK293 cells. Type of assay: cell-based. On the technique in general: BRET reads energy transfer from a luciferase to a nearby fluorophore.
Assay [2] deals with AKT2 (Homo sapiens (Human), UniProt P31751). The description is as above. The assay is classed as cell-based. The following applies: HEK293, 2 hours at 37° C.

Structures are written as SMILES.

In the case of `Nc1ncccc1-c1nc2ccc(N3C4CCC3COC4)nc2n1-c1ccc(CNC(=O)Cc2ccc(C=O)c(O)c2)cc1` [Example 9, N-(4-(2-(2-aminopyridin-3-yl)-5-(3-oxa-8-azabicyclo[3.2.1]octan-8-yl)-3H-imidazo[4,5-b]pyridin-3-yl)benzyl)-2-(4-formyl-3-hydroxyphenyl)acetamide], in assay [1], the “AKT1 E17K IC50: Selectivity vs AKT1 WT” value is 18 and the “AKT1 E17K IC50: Selectivity vs AKT2” value was above 160. The compound also yielded an IC50 in assay [1] (HEK293, 2 hours at 37° C.) below 100 nM. For the same compound, the IC50 in assay [2] was above 500 nM.

The values are drawn from patent US20250115600A1, “COVALENT MODIFIERS OF AKT1 AND USES THEREOF” (Terremoto Biosciences, Inc., priority 2022, published 2025).
